Laboratory results: US6596719B1 (Actelio Pharmaceuticals Ltd., priority 1999, dated 2003)

Sequences of proteins named here, by UniProt entry; tags and fusion partners are left off. Residues count along the entry.
UniProt P25101, 21-427: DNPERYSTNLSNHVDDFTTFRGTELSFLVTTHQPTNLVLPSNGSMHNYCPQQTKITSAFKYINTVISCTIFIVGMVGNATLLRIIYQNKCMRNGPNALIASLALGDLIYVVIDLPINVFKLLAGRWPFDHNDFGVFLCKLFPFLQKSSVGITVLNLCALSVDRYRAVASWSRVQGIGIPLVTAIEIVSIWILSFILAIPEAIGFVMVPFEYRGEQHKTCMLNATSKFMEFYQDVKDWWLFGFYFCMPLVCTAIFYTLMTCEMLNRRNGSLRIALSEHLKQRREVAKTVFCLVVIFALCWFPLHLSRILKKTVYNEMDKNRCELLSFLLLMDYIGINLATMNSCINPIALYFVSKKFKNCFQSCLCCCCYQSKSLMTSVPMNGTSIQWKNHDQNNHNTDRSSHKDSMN

Columns and labels:
[1] = target: T1, human recombinant ETB receptors (Homo sapiens, UniProt P24530); experiment: Inhibition of endothelin binding to membranes from CHO cells carrying human ET receptors (ETB); settings: membranes of CHO cells expressing human recombinant ETB receptors, 8 pM [125I]ET-1, 2 h at 20° C.
T1 construct: expressed in transfected cells; host or cells: CHO cells (microsomal membranes)
T1 sequence (P24530 27-442): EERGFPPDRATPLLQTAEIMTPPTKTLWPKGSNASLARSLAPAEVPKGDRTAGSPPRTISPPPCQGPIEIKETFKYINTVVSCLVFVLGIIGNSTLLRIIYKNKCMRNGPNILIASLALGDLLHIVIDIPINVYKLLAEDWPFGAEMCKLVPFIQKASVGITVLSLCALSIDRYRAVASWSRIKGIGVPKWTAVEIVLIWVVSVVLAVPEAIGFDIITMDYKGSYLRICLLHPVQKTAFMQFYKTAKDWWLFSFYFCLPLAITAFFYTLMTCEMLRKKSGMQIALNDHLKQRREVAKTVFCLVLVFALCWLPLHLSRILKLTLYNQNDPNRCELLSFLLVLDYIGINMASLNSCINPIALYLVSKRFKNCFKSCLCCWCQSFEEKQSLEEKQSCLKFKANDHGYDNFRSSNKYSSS
Protocol: 1) Inhibition of Endothelin Binding to Membranes from CHO Cells Carrying Human ET Receptors:
For competition binding studies, membranes of CHO cells expressing human recombinant ETA or ETB receptors were used. Microsomal membranes from recombinant CHO cells were prepared and the binding assay made as previously described (Breu V., et al, FEBS Lett 1993; 334:210).
The assay was performed in 200 uL 50 mM Tris/HCl buffer, pH 7.4, including 25 mM MnCl2, 1 mM EDTA and 0.5% (w/v) BSA in polypropylene microtiter plates. […]. […] After two h, the membranes were filtered on, filterplates containing GF/C filters (Unifilterplates from Canberra Packard S. A. Zürich, Switzerland). To each well, 50 uL of scintillation cocktail was added (MicroScint 20, Canberra Packard S. A. Zürich, Switzerland) and the filter plates counted in a microplate counter (TopCount, Canberra Packard S. A. Zürich, Switzerland).
All the test compounds were dissolved, diluted and added in DMSO. […] […].

[2] = target: T2, human recombinant ETA receptors (Homo sapiens, UniProt P25101); experiment: Inhibition of endothelin binding to membranes from CHO cells carrying human ET receptors (ETA); settings: membranes of CHO cells expressing human recombinant ETA receptors, 8 pM [125I]ET-1, 2 h at 20° C.
T2 construct: expressed in transfected cells; host or cells: CHO cells (microsomal membranes)

5-i.-propyl-N-[6-(ethoxy-2-benzenesulfonamido)-5-(o-methoxyphenoxy)-2-(4-pyridyl)-4-pyrimidinyl]pyridine-2-sulfonamide [Example 13]
IC50 [1]: 69.2 nM
IC50 [2]: 885 nM
